Laboratory results reported in patent US20080241211A1, “DEVICE WHICH ENHANCES THE BIOLOGICAL ACTIVITY OF LOCALLY APPLIED GROWTH FACTORS WITH PARTICULAR EMPHASIS ON THOSE USED FOR BONE REPAIR” (University of Southern California, priority 2007, published 2008).

Test system: Pre-myoblast cell line C2C12
Experiment: BMP-2 induced ALP activity in C2C12 cell culture
Format: cell-based
Conditions: FIG. 3
Method: DBM activity test: Osteoinductivity of BMP-2 and DBM can be quantitatively analysis by using cell culture method. Pre-myoblast cell line C2C12 was used for test BMP-2 induced ALP activity.
C2C12 was plated in 96-well culture plate with density of 12.5K/well in 10% FBS/DMEM for 5 hours attachment. Medium was changed into 1% testing medium followed by adding different amount of BMP-2 and/or naringin solution. Cells were incubated at 37° C. for another 48 hours. Cell membrane associated ALP activity was tested by standard ALP assay.
C2C12 was plated in 96-well culture plate with density of 12.5K/well in 10% FBS/DMEM for 5 hours attachment. Medium was changed into 1% testing medium. Forty nano-gram of rhBMP-2 in 10 μl was added in every well and 1-1600 nM of naringin was added 10 minutes later. […] The sequence and time interval between the addition of growth factor and enhancer is also critical to their biological effect.
When naringin is added, however, BMP-2 activity is increased four-fold to 0.4. […] Therefore, the combination of naringin and BMP-2 is considered to show “synergistic effect”.
Induction of differentiation by naringin is associated with increased bone morphogenetic protein-2 (BMP-2) production. […] (see FIG. 3).
Naringin dose range in vitro on C2C12: around 12.5 to 2000 nM, lower than most phytoestrogen dose, but within the range of non-productive actions of estrogen derivatives. […]

B1: BMP-2: bone morphogenetic protein-2, osteoinductive agent (protein, UniProt P12643 283-396, looked up)
Bone morphogenetic protein 2: QAKHKQRKRLKSSCKRHPLYVDFSDVGWNDWIVAPPGYHAFYCHGECPFPLADHLNSTNHAIVQTLVNSVNSKIPKACCVPTELSAISMLYLDENEKVVLKNYQDMVVEGCGCR
activity in the alkaline phosphate (ALP) assay (BMP-2 in the absence of naringin): 0.1 | effect of BMP-2 on ALP activity (C2C12, 48 hours): dose dependently increased ALP activity
